AlphaSeq binding of Ab-14 light chain variants to a spike HR2 peptide

Reference: Engelhart et al. 2022, doi:10.1038/s41597-022-01779-4. File: FLAb, binding data.

Target: peptide PDVDLGDISGINAS, taken from heptad repeat 2 (HR2) of SARS-CoV-2 spike.

Parent scFv Ab-14: VH joined to VL by three GGGGS repeats. Changes lie in the light chain CDRs alone.
VH: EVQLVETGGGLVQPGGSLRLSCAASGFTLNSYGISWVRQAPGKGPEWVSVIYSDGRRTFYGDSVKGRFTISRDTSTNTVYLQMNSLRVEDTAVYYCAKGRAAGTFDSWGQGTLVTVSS
VL: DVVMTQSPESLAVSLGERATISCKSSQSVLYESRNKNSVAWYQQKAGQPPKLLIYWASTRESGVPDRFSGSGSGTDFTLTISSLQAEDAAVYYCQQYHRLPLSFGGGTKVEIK

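Library AAYL50 holds single substitutions and randomly drawn double and triple substitutions in the CDRs. Affinity was read by AlphaSeq, a pooled yeast mating assay with surface-displayed partners. Pairs that bind mate more often; barcode pairs of the diploids are counted by sequencing. Read counts were normalised to the haploid input and turned into Kd by a linear fit to BCL2-family pairs of known affinity, for each replicate. Mating was done three times.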

Positions count from residue 1 of the parent VL; S28W puts W in place of S. The read-out is the apparent dissociation constant on a log10 scale (nM): the lower, the stronger. A pair that was not seen in that replicate is written "n.d."; this usually means weak binding, but a binder can also be missed. Three control strains display no target. For library AAYL50, 18% of the pairings with them gave a signal, with a median of 4.19 and one signal in twenty below 2.99, so weak values seen in few replicates may be background. For each scFv, signals with the empty controls are counted beside the result, with their mean in brackets.

| # | changes | log10 Kd, replicates | signal with controls |
|---|---|---|---|
| 1 | S28W V29W P101Y | n.d. / n.d. / n.d. | 0/9 |
| 2 | Q27P T59E H98A | n.d. / n.d. / 4.86 | 2/9 (5.02) |
| 3 | R34G T59D P101I | 1.80 / 1.66 / 2.46 | 0/9 |
| 4 | S25Y S38Q P101I | 1.21 / 1.52 / 1.80 | 1/9 (2.71) |
| 5 | S26N R60A R99Y | n.d. / 3.07 / 5.81 | 2/9 (4.66) |
| 6 | Y31K N35I | n.d. / 1.72 / n.d. | 0/9 |
| 7 | S26F S28K R60F | 2.52 / 3.54 / 4.61 | 4/9 (4.09) |
| 8 | L30R Y97M P101F | 1.20 / 1.54 / 1.16 | 0/9 |
| 9 | Q27N H98K L100E | n.d. / n.d. / n.d. | 0/9 |
| 10 | S25Q N35W T59Q | 1.04 / 1.27 / 1.30 | 3/9 (4.66) |
| 11 | S25W Q27W L30Q | 1.48 / 1.22 / 1.84 | 0/9 |
| 12 | A40I A57T L102I | 4.50 / n.d. / n.d. | 2/9 (2.60) |
| 13 | W56C R60N | n.d. / 4.10 / 4.36 | 3/9 (4.09) |
| 14 | E32W N37W R60Q | n.d. / n.d. / n.d. | 0/9 |
| 15 | K24R S28D | 0.58 / 0.92 / 0.78 | 1/9 (4.62) |
| 16 | S28R E32T A57R | n.d. / n.d. / n.d. | 1/9 (4.90) |
| 17 | S28H S62D P101T | 0.57 / 1.05 / 0.83 | 2/9 (4.04) |
| 18 | K24N V29M S58D | 0.97 / 1.10 / 1.13 | 3/9 (4.05) |
| 19 | V29A P101D | n.d. / 3.01 / n.d. | 4/9 (3.95) |
| 20 | Y97L H98E L100H | 1.53 / 2.16 / 2.34 | 2/9 (3.73) |
| 21 | A40R L102C | n.d. / n.d. / n.d. | 1/9 (3.04) |
| 22 | V39M E61D | 2.04 / 1.91 / 2.26 | 1/9 (4.11) |
| 23 | K24N Q27T Y31D | 2.39 / 1.96 / 1.84 | 1/9 (3.97) |
| 24 | S25Q N35E T59Y | 1.77 / 1.90 / 1.91 | 0/9 |
| 25 | S38G A40E E61Q | n.d. / 5.63 / 4.81 | 5/9 (3.99) |
| 26 | S33Y N37P S58K | n.d. / n.d. / n.d. | 0/9 |
| 27 | A57F L102A | n.d. / n.d. / 2.86 | 0/9 |
| 28 | R60P E61I L100S | 4.58 / n.d. / n.d. | 4/9 (4.84) |
| 29 | V29M L30V N35W | 2.78 / n.d. / n.d. | 0/9 |
| 30 | S25A K36H Q95T | n.d. / n.d. / n.d. | 2/9 (3.11) |
| 31 | N37C A40R S58L | n.d. / n.d. / 2.71 | 2/9 (3.73) |
| 32 | S26G R99K L100Q | 4.26 / 4.48 / n.d. | 0/9 |
| 33 | Q27N T59M Q95F | n.d. / n.d. / 4.07 | 4/9 (3.89) |
| 34 | N37L V39D R60F | n.d. / n.d. / 5.16 | 4/9 (4.17) |
| 35 | A40G Y97K | 3.52 / 3.12 / n.d. | 2/9 (5.04) |

3 of these entries, quoted again:

changes,"log10 Kd, replicates",signal with controls
V29A P101D,n.d. / 3.01 / n.d.,4/9 (3.95)
Y31K N35I,n.d. / 1.72 / n.d.,0/9
K24N Q27T Y31D,2.39 / 1.96 / 1.84,1/9 (3.97)

Parent in this assay: reference entry 0.65, copy in this library 1.68.